ERAP1 HTS inh: inhibitors of human ERAP1 aminopeptidase; 0.15% of 340,000 active; recombinant ERAP1, Leu-AMC fluorescence, 60 min; Q9NZ08; inhibition, % at 10.7 µM;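 active = mean replicate inhibition of at least 30%, or all replicates individually reaching that 30% level; inactive = mean below 30% and not every replicate reaching it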;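 note: 0% = neutral control wells and 100% = L-leucinethiol positive control wells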
MLL AF4-AF9 inh: blocks AF4 peptide binding to human AF9 | 0.47% of 350,000 active | AID 651704 | inhibition, % at 10 µM | P42568 | AlphaScreen, biotin-AF4 peptide binding to FLAG-AF9;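 active = every replicate reaching a set inhibition limit, whatever the replicate mean, cut at about 25% in these data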;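 note: 0% = plate neutral control median and 100% = total signal loss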
E-sel inducer: E-selectin induction on HUVECs; P16581; HUVEC E-selectin immunofluorescence imaging; normalized: neutral wells 0, TNF-alpha wells 100; activation, % at 7.58 µM; 0.37% of 260,000 active;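 active = mean E-selectin-positive cell signal at least 10% of the positive control, reached in at least 60% of replicates, without over 20% cell loss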
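Test system: HUVEC; input: 3,000 HUVEC/well; measured by: immunofluorescence imaging; read-out: % PE-positive cells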
UUG fidelity: modulators of yeast start codon fidelity, primary screen, whole organism, S. cerevisiae, single point, plate reader; S. cerevisiae UUG-firefly luciferase reporter, luminescence/redox ratio; activity score, % at 18.7 µM; 0.13% of 350,000 active; AID 602363, 2012;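 active = replicate mean at a twofold rise or more, about +100% in these data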;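 also: firefly luciferase made from a UUG start codon reports start codon fidelity; reporter light over untreated wells divided by growth signal over untreated wells; some hits fall short of that in this replicate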
S100A4 inh HTS: S100A4-myosin IIA interaction inhibition; S100A4/TAMRA-MyoIIA peptide fluorescence polarization; inhibition, % at 10.7 µM; 0.14% of 360,000 active; P26447;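 active = mean inhibition of at least 70% across replicates, with every replicate also reaching that level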
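Test system – S100A4 monomer (human) · Compound – single-point compound testing · Schedule – 5 min incubation before reading · Probe or stimulus – TAMRA-labelled myosin IIA heavy-chain peptide probe, 5 nM · Benchmarks – neutral control DMSO, positive control TFP · Medium – Calcium-containing HEPES buffer, pH 7.2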
ARNT-TACC3 inh: disrupts binding between human ARNT and TACC3; 0.66% of 390,000 active; AlphaScreen His-ARNT PAS-B/GST-TACC3 binding, luminescence; TACC3 fragment carries E629A point mutation; AID 623870; inhibition, % at 9.99 µM;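 active = mean inhibition of replicates at least 50% and at least half of replicates each reaching 50%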;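 note: 0% = complete ARNT plus TACC3 wells and 100% = ARNT alone without TACC3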
* hit, by the source's call; / = no result. Only some compounds are listed: those with a hit (about 1.3% of all), similar ones and a draw of the others.

Letter code: A = ERAP1 HTS inh; B = MLL AF4-AF9 inh; C = E-sel inducer; D = UUG fidelity; E = S100A4 inh HTS; F = ARNT-TACC3 inh
Nc1ncnc(N)c1N=Nc1ccccc1
  A: 1; B: -2; C: 0; D: -8; E: -3; F: 0

Nc1ccc2ccccc2c1N=Nc1ccccc1
  A: 2; B: 36*; C: 5; D: -5; E: -19; F: 19

Cc1csc(NC(=O)CCSCCc2ccccn2)n1
  A: -2; B: 42*; C: 0; D: -15; E: -14; F: -3

Cc1cccc(C)c1-n1nnnc1-c1nc2ccccc2[nH]c1=O
  A: /; B: -1; C: 49*; D: /; E: 0; F: /

COc1ccc(-c2csc(N(CCCN(C)C)C(=O)c3ccccc3C)n2)cc1
  A: -3; B: 31*; C: 0; D: -9; E: -1; F: 16

O=C(NC1CCCC1)N1CC(=O)N2[C@@H](CO)[C@H](c3ccc(-c4cccnc4)cc3)[C@@H]2C1
  A: -3; B: -3; C: -1; D: /; E: -13; F: /

COc1cccc(C2C=C(c3cccs3)Nc3ncnn32)c1OC (stereo not drawn)
  A: /; B: /; C: /; D: -29; E: /; F: 28*

NCC[C@H]1CC[C@H](NS(=O)(=O)Cc2ccccc2)[C@@H](CO)O1
  A: -2; B: 2; C: 0; D: -12; E: 7; F: 11

N#Cc1ccccc1OCC(=O)OCC(=O)c1ccc2c(c1)NC(=O)CO2
  A: 36*; B: /; C: /; D: -7; E: 1; F: /

C[C@@H]1CN([C@@H](C)CO)C(=O)Cc2cc(NC(=O)NC3CCCCC3)ccc2O[C@H]1CN(C)C(=O)Nc1ccc2c(c1)OCO2
  A: 2; B: 1; C: 28*; D: 6; E: 17; F: -6

C[C@@H]1CN([C@@H](C)CO)C(=O)Cc2cc(NC(=O)Nc3ccc4c(c3)OCO4)ccc2O[C@H]1CN(C)CC1CCCCC1
  A: 1; B: 27*; C: 0; D: -2; E: -17; F: 15

C[C@H](CO)N1C[C@H](C)[C@H](CN(C)CC2CCCCC2)Oc2ccc(NC(=O)Nc3ccc4c(c3)OCO4)cc2C1=O
  A: -4; B: 10; C: 349*; D: 22; E: 3; F: /

C[C@H](CO)N1C[C@H](C)[C@H](CN(C)C(=O)Nc2ccc3c(c2)OCO3)Oc2ccc(NC(=O)NC3CCCCC3)cc2CC1=O
  A: 1; B: 1; C: -8; D: 8; E: 7; F: -5

C[C@@H]1CN([C@@H](C)CO)C(=O)c2cc(NC(=O)Nc3ccc4c(c3)OCO4)ccc2O[C@@H]1CN(C)CC1CCCCC1
  A: 3; B: 13; C: 19; D: 17; E: 40; F: -31

Cc1cccc(CC(=O)Nc2sc(C(C)C)cc2C(=O)N2CCOCC2)c1
  A: 3; B: -2; C: 67*; D: -11; E: -1; F: -1

O=C(C[C@@H]1CC[C@H]2[C@@H](COC[C@H](O)CN2C(=O)Cc2ccccc2)O1)NC1Cc2ccccc2C1
  A: 2; B: 3; C: 1; D: /; E: 1; F: -3

CCOC(=O)CNc1c(-c2ccccc2)nc2ccc(Cl)cn12
  A: /; B: /; C: /; D: -30; E: /; F: 14

COC(=O)CNc1c(-c2ccccn2)nc2ccc(Br)cn12
  A: /; B: /; C: /; D: -46; E: /; F: 62*

Cc1noc(C)c1NC(=O)Nc1ccc2c(c1)C(=O)N([C@H](C)CO)C[C@@H](C)[C@H](CN(C)Cc1ccc(C(F)(F)F)cc1)OCCCC[C@H](C)O2
  A: 1; B: 6; C: 0; D: -1; E: 2; F: 5

O=C(NCCN1CCOCC1)C1CCN(c2nc3ccccc3o2)CC1
  A: -7; B: 40*; C: /; D: -12; E: 0; F: 1

O=C(N/N=C/c1cccc2ccccc12)c1ccncc1
  A: 1; B: 5; C: 0; D: -29; E: -1; F: 5

O=C(N/N=C/c1c(O)n(-c2ccc(Cl)cn2)c(=O)c2ccccc12)c1ccncc1
  A: /; B: /; C: /; D: -18; E: /; F: 42*

O=C(N/N=C/c1c(O)n(-c2ccc(Cl)cn2)c(=O)c2ccccc12)C1CC1
  A: /; B: /; C: /; D: /; E: /; F: 68*

CNC[C@@H]1OCCCC[C@H](C)Oc2ccc(NC(=O)Nc3ccccc3)cc2C(=O)N([C@@H](C)CO)C[C@@H]1C
  A: -2; B: 5; C: 0; D: 20; E: -8; F: -2

O=C(CSc1nnc(-c2cccnc2)o1)Nc1nccs1
  A: 4; B: -9; C: 1; D: -21; E: 0; F: 50*

Cc1nc2cc(C(=O)O)ccc2n1-c1ccccc1
  A: 5; B: 3; C: 0; D: -24; E: -7; F: -7

CC1=CC(C)(C)[N+](C)=CN1c1ccccc1
  A: 51*; B: -4; C: /; D: /; E: -3; F: -5

CCC(=O)N(C)C[C@H]1Oc2cc(-c3ccc(F)cc3)ccc2S(=O)(=O)N([C@H](C)CO)C[C@H]1C
  A: -1; B: -2; C: 0; D: 11; E: -8; F: -5

COc1ccccc1-n1nnnc1SCC(=O)NCC1(N2CCOCC2)CCCCC1
  A: 2; B: 27*; C: /; D: -2; E: -3; F: 22

COc1ccc(S(=O)(=O)Nc2ccc3c(c2)C(=O)N([C@@H](C)CO)C[C@@H](C)[C@H](CN(C)C(=O)NC2CCCCC2)OCCCC[C@H](C)O3)cc1
  A: 1; B: 1; C: /; D: 1; E: 3; F: -3

Cc1c(N(C)C(=O)COc2ccc3ccccc3c2)c(=O)n(-c2ccccc2)n1C
  A: -6; B: 2; C: 42*; D: -12; E: 2; F: /

Cc1c(NC(=O)c2ccc(COc3ccc4ccccc4c3)o2)c(=O)n(-c2ccccc2)n1C
  A: -1; B: 3; C: /; D: -10; E: -4; F: 6

CC(C)NC(=O)C1C(c2ccc(C(F)(F)F)cc2)=Nc2ccccc2N1C(=O)c1ccco1 (stereo not drawn)
  A: 44*; B: 5; C: 0; D: /; E: -6; F: /

C=CCn1c(SCCN2C(=O)c3ccccc3C2=O)nc2scc(-c3ccc(F)cc3)c2c1=O
  A: -1; B: 8; C: 0; D: /; E: -1; F: 55*

C=CCn1c(SCC(=O)N2CC(=O)Nc3ccccc32)nc2scc(-c3ccccc3)c2c1=O
  A: 5; B: /; C: /; D: -14; E: 12; F: /

C[N+]1(CC2COC3(CCCCC3)O2)CCCC1 (stereo not drawn)
  A: 81*; B: -7; C: 2; D: -24; E: -1; F: /

COc1cccc(CNC(=O)[C@@H]2N[C@@H]3c4ccc(/C=C/c5ccccc5)c(=O)n4C[C@@H]3[C@H]2CO)c1
  A: /; B: /; C: 0; D: /; E: /; F: /

CC(=O)N1c2ccc(S(=O)(=O)N3CCC(C(=O)Nc4ncccc4C)CC3)cc2CC1C (stereo not drawn)
  A: 0; B: -2; C: /; D: -22; E: 86*; F: -10

C[C@@H]1CN([C@@H](C)CO)C(=O)c2cc(NC(=O)c3ccccc3)ccc2O[C@@H](C)CCCCO[C@@H]1CN(C)C(=O)C1CCCCC1
  A: 0; B: -5; C: 0; D: 36; E: -2; F: /

O=C(Nc1cccc(Cl)c1)N[C@H]1CC[C@H](CCNC(=O)C2CCCC2)O[C@@H]1CO
  A: 4; B: 1; C: 0; D: 7; E: 1; F: -7

O=C(Nc1cccc(Cl)c1)N[C@H]1CC[C@H](CCNC(=O)C2CCCC2)O[C@H]1CO
  A: 3; B: -1; C: 0; D: 18; E: 132*; F: 14

O=C(Nc1ccccc1F)N[C@H]1CC[C@H](CCNC(=O)C2CCCCC2)O[C@H]1CO
  A: -3; B: -1; C: 0; D: /; E: 87*; F: 22

COc1ccccc1NC(=O)N[C@H]1C=C[C@@H](CC(=O)N[C@H](C)c2ccccc2)O[C@H]1CO
  A: -2; B: -1; C: 0; D: -4; E: 12; F: -3

Three structures already listed, ordered by molar mass, low to high.
Letter code: A = ERAP1 HTS inh; B = MLL AF4-AF9 inh; C = E-sel inducer; D = UUG fidelity; E = S100A4 inh HTS; F = ARNT-TACC3 inh
O=C(Nc1ccccc1F)N[C@H]1CC[C@H](CCNC(=O)C2CCCCC2)O[C@H]1CO
  A: -3; B: -1; C: 0; D: /; E: 87*; F: 22

Cc1c(NC(=O)c2ccc(COc3ccc4ccccc4c3)o2)c(=O)n(-c2ccccc2)n1C
  A: -1; B: 3; C: /; D: -10; E: -4; F: 6

COc1cccc(CNC(=O)[C@@H]2N[C@@H]3c4ccc(/C=C/c5ccccc5)c(=O)n4C[C@@H]3[C@H]2CO)c1
  A: /; B: /; C: 0; D: /; E: /; F: /

High-throughput results deposited in PubChem by Broad Institute.
